The values below come from ChEMBL document CHEMBL1129522, “Inhibitors of acyl-CoA:cholesterol O-acyltransferase. 17. Structure-activity relationships of several series of compounds derived from N-chlorosulfonyl isocyanate” (J Med Chem, 1996).

Structures are written as SMILES.

This experiment deals with T1, Sterol O-acyltransferase 1 (Rattus norvegicus, UniProt O70536).
T1 sequence (O70536 whole entry): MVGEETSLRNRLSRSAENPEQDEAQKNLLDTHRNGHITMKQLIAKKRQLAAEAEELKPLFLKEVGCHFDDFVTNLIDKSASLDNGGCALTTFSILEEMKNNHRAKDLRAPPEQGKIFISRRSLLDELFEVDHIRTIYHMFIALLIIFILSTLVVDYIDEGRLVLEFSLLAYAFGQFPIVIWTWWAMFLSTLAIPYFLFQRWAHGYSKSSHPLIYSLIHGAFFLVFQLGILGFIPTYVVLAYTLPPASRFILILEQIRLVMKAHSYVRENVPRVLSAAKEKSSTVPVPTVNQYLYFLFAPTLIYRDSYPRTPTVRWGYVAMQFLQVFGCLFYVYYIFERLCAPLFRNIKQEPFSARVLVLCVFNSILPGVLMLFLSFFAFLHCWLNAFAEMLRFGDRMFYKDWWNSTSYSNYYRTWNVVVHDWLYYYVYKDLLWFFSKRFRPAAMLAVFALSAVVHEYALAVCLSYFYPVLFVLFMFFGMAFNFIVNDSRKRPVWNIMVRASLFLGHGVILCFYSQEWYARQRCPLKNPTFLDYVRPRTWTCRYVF
Briefly: In vitro inhibitory activity against acyl coenzyme A:cholesterol acyltransferase 1 in microsomes of rat liver.

Take `CCCCCCCCCCC(C)OS(=O)(=O)NC(=O)Nc1c(C(C)C)cccc1C(C)C` (configuration not stated): inhibition was half-maximal at 16 µM (IC50).

For the compound `Cc1cc(C(C)(C)C)c(OC(=O)NS(=O)(=O)N(CCCN(C)C)CCCN(C)C)c(C(C)(C)C)c1`, half-maximal inhibition (IC50) required 164 µM.

As usually defined, the IC50 is the concentration that inhibits the measured activity by half. A higher IC50 goes with a need for much substance.
